{"source": "patent US20230181690A1", "about": "“METHODS FOR TREATING ANEMIA USING AN ACTRIIB LIGAND TRAP AND FEDRATINIB” (Celgene Corporation, priority 2020, published 2023)", "origin": "cited, not measured here", "key": {"[1]": {"test_system": "JAK2V617F-driven myeloproliferative disease", "conditions": "mouse models"}, "[2]": {"test_system": "cell models expressing mutationally active JAK2 or FLT3"}}, "data": [{"compound": "Cc1cnc(Nc2ccc(OCCN3CCCC3)cc2)nc1Nc1cccc(S(=O)(=O)NC(C)(C)C)c1", "note": "[fedratinib, N-tert-butyl-3-[(5-methyl-2-{4-[2-(pyrrolidin-1-yl)ethoxy]anilino}pyrimidin-4-yl)amino]benzenesulfonamide]", "values": [{"measurement": "survival", "setting": "[1]", "value": "increased survival"}, {"measurement": "apoptotic cell death", "setting": "[2]", "value": "induced apoptotic cell death"}]}]}
